{
  "source": "patent US4287190A",
  "about": "“Complexes of bivalent copper” (priority 1979, dated 1981)",
  "key": {"skin of the rats": {"tested_on": "skin of the rats", "test": "Percutaneous absorption, TLC of urine extracts (Example 4, FIG. 1)", "type": "in vivo, Male Wistar rats", "procedure": "Male Wistar rats (average weight 250 g) were anaesthetised with diethyl ether and an area of c 20 sq. cm. was shaven high on their backs. The Cu[H Sal]2. C2 H5 OH composition prepared according to example 3 was then applied to each rat (c. 20 ml per 3 rats). The rats were then returned to their cages and after two days their urine was collected and compared with the urine of control, untreated, rats following the procedure below.\nUrine (5 ml) was acidified with 2 M H2 SO4 and shaken with ethyl acetate (2 ml). After centrifuging, the ethyl acetate layer was analysed by thin layer chromatography on silica gel (solvent: benzene, diethyl ether, glacial acetic acid and methanol in a ratio of 120:60:18:1 by volume) along with samples of salicylic acid, salicyluric acid, gentisic acid and ethyl salicylate.\nThe results are shown in FIG. 1 which is a diagrammatic representation of a chromatogram run under the conditions described above with solvent flow from origin line, represented by the points of application of the samples 1 to 9, in the direction of the arrow shown and wherein:\n1 and 9 represent the points of application of a sample of a mixture of salicyluric acid (a) and salicyclic acid (b) chromatographed for comparative purposes;\n2 and 8 represent the points of application of a sample of the urine extract of rats treated with the Cu[H Sal]2. C2 H5 OH composition; […]"}, "[1]": {"test": "Stability of the Cu[H Sal]2. C2 H5 OH solution", "type": "physicochemical", "settings": "c. 0.1 M solution in ethanol-glycerol with excess salicylic acid", "procedure": "Freshly prepared cupric hydroxide (1.0 g) was added to a solution of salicylic acid (7 g) in anhydrous ethanol (80 ml). The suspension was heated under reflux until all the cupric hydroxide had reacted. The resultant deep-green-coloured solution was filtered to remove any insoluble polymeric copper salicylate and glycerol (20 ml) was added to the filtrate."}},
  "data": [
    {"substance": "copper salicylate ethanolate [Cu[H Sal]2. C2 H5 OH]", "values": [
      {"measurement": "perfusion of the skin (percutaneous absorption)", "setting": "skin of the rats; topical composition of example 3, inferred from urine chromatogram", "result": "has perfused the skin of the rats"},
      {"measurement": "salicylic acid and gentisic acid in the urine of treated rats", "setting": "skin of the rats; topical, shaved back, urine collected after two days, TLC", "result": "presence of salicylic acid and gentisic acid in the urine"},
      {"measurement": "stability of the solution", "setting": "[1]", "result": "stable for a prolonged indefinite period"}
    ]}
  ]
}
